Assay results as given in US20220401536A1 (published 2022).

Target: Wt DD1α (full length DD1α expressed on the cell surface) (human, UniProt Q9H7M9)
Experiment: latex bead binding assay on transfected 293T cells

binding result: binds
B1: Recombinant human PD-1-Ig (extracellular region of PD-1 fused with the immunoglobulin G Fc segment) (Fc fusion)
chain: LDSPDRPWNPPTFSPALLVVTEGDNATFTCSFSNTSESFVLNWYRMSPSNQTDKLAAFPEDRSQPGQDCRFRVTQLPNGRDFHMSVVRARRNDSGTYLCGAISLAPKAQIKESLRAELRVTERRAEVPTAHPSPSPRPAGQFQTLV
notes: domain: Fc segment; also called Ig-fused PD-1; recombinant PD-1 protein; not shown: immunoglobulin G Fc segment
